## Antibody variant affinities, Ab-95 light chain, assay 2

Reference: Engelhart et al. 2022, doi:10.1038/s41597-022-01779-4. File: FLAb, binding data.

Target: peptide PDVDLGDISGINAS, taken from heptad repeat 2 (HR2) of SARS-CoV-2 spike.

Parent scFv Ab-95: VH joined to VL by a (GGGGS)3 linker. Changes lie in the light chain CDRs alone.
VH: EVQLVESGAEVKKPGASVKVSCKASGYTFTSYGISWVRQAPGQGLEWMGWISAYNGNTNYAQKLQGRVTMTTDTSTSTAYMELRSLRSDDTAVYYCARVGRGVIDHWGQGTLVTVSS
VL: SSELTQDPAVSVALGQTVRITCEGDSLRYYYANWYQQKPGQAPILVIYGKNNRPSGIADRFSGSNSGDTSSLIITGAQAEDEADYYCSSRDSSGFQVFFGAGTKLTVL

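The starting antibody came from a phage panning campaign against this peptide. In library AAYL52, one, two or three CDR residues were substituted; doubles and triples were drawn at random. Affinity was read by AlphaSeq, a pooled yeast mating assay with surface-displayed partners. Binding brings cells together so that they mate, and sequencing counts the barcode pairs among the diploids. Each replicate has its own calibration line, from reference interactions of the BCL2 family. Each pool was mated in three replicate cultures.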

Changes read parent residue, position, new residue, counted from the first residue of the VL shown. Numbers give log10(Kd / nM), so 0 is 1 nM and 3 is 1 µM. Smaller is tighter. A pair that was not seen in that replicate is written "ND"; this usually means weak binding, but a binder can also be missed. Background: pairings of library AAYL52 with three empty control strains gave a value in 28% of cases (median 3.91, 5th percentile 2.90). Values in that range, when seen in few replicates, are hard to tell from nonspecific mating. For each scFv, signals with the empty controls are counted beside the result, with their mean in brackets.

| # | changes | log10 Kd, replicates | empty controls |
|---|---|---|---|
| 1 | Y29C R90K | 3.37 / ND / 4.59 | 2 of 9 (4.35) |
| 2 | D25H | 1.84 / 1.89 / 2.01 | 0 of 9 |
| 3 | D25Q F98G | 1.93 / 2.27 / 1.60 | 6 of 9 (4.20) |
| 4 | G24Y R28Q F95I | 2.81 / ND / ND | 0 of 9 |
| 5 | E23R R28L N52T | 1.84 / 1.92 / 1.59 | 2 of 9 (3.49) |
| 6 | N52R S89W V97I | ND / ND / ND | 2 of 9 (3.94) |
| 7 | E23K F95H | 2.99 / 2.77 / 2.55 | 6 of 9 (3.78) |
| 8 | D25L R53D F95R | 3.37 / 3.29 / 4.52 | 3 of 9 (3.86) |
| 9 | Y30E R90F F95T | ND / ND / ND | 4 of 9 (3.62) |
| 10 | L27H N51S S92H | 3.18 / 3.13 / ND | 1 of 9 (4.19) |
| 11 | S26P A32H N33C | ND / ND / ND | 3 of 9 (3.64) |
| 12 | L27V P54V V97R | ND / ND / ND | 1 of 9 (2.98) |
| 13 | S93W | 2.49 / 2.22 / 1.59 | 3 of 9 (4.45) |
| 14 | Y31R N52L G94N | 2.71 / 2.49 / 1.92 | 4 of 9 (3.69) |
| 15 | D25W Y31P N33P | 4.66 / 4.80 / 4.06 | 6 of 9 (3.93) |
| 16 | A32L S89L | 3.67 / 4.47 / ND | 3 of 9 (4.20) |
| 17 | L27Q N51F G94C | 4.96 / ND / ND | 2 of 9 (4.43) |
| 18 | Y30V S89L V97I | 3.11 / ND / ND | 1 of 9 (3.94) |
| 19 | D25K D91T S92E | 3.63 / 4.00 / 3.44 | 4 of 9 (3.50) |
| 20 | Y29W G49M R53E | ND / ND / ND | 1 of 9 (3.35) |
| 21 | G49S D91R F95C | 4.01 / 2.97 / ND | 4 of 9 (3.59) |
| 22 | S26W S93R G94N | ND / 3.72 / 4.16 | 2 of 9 (3.34) |
| 23 | R28K S89D D91M | 2.71 / 2.11 / 2.18 | 4 of 9 (3.97) |
| 24 | S26H Y30A S89Y | 1.41 / 1.41 / 1.08 | 3 of 9 (3.77) |
| 25 | N33V G49D R90N | ND / 4.97 / 3.97 | 4 of 9 (4.61) |
| 26 | D25A P54V D91I | 3.41 / 2.95 / 2.66 | 1 of 9 (3.25) |
| 27 | D25R G49Q S88K | ND / ND / ND | 1 of 9 (4.67) |
| 28 | Y30N N51A R90D | 2.20 / 2.53 / 2.14 | 3 of 9 (3.74) |
| 29 | N52L S89H R90L | ND / 3.63 / ND | 1 of 9 (5.55) |
| 30 | N33C S88A Q96M | 3.77 / ND / 3.29 | 5 of 9 (4.60) |
| 31 | A32E S88H S93R | ND / ND / ND | 1 of 9 (2.58) |
| 32 | G49M S55E F98K | 5.31 / 4.83 / ND | 3 of 9 (3.87) |
| 33 | N51Y D91G F95T | 3.17 / 3.53 / 4.30 | 2 of 9 (3.55) |
| 34 | N51Y P54N S55M | 3.75 / ND / ND | 0 of 9 |
| 35 | G24L Y30S P54N | 2.98 / 2.74 / 2.39 | 3 of 9 (3.54) |
| 36 | Y30R D91T S92L | 2.38 / 2.73 / 1.85 | 2 of 9 (3.64) |
| 37 | L27P G49W S92L | 4.80 / ND / 3.51 | 1 of 9 (4.06) |
| 38 | G24C S93D F98D | 2.36 / 2.24 / 2.60 | 3 of 9 (3.89) |
| 39 | G24T S26V N52Q | 1.68 / 1.94 / 1.65 | 5 of 9 (3.78) |

The opening 3 entries, copied out:

changes	log10 Kd, replicates	empty controls
Y29C R90K	3.37 / ND / 4.59	2 of 9 (4.35)
D25H	1.84 / 1.89 / 2.01	0 of 9
D25Q F98G	1.93 / 2.27 / 1.60	6 of 9 (4.20)